The numbers were not newly measured in patent US20190015396A1, “VMAT2 INHIBITORS FOR TREATING NEUROLOGICAL DISEASES OR DISORDERS” (Neurocrine Biosciences, Inc., priority 2015, published 2019), which cites them from elsewhere.

Chains of the proteins cited; added tags and fusions are not shown.
UniProt Q05940, whole entry, species assumed: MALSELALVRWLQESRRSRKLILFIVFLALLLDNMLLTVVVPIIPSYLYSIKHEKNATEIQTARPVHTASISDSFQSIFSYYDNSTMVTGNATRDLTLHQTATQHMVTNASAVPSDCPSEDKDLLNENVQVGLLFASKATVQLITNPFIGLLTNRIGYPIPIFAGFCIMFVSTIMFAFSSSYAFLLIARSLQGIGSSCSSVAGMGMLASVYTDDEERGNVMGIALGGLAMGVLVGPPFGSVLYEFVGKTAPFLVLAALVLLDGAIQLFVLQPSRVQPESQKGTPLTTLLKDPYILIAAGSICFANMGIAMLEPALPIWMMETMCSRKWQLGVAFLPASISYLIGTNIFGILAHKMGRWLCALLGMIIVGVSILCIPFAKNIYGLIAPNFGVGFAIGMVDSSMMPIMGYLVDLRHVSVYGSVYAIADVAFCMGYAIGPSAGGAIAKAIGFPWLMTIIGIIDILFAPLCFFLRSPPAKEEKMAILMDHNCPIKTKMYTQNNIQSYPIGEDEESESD

For this data set, the target named is VMAT2 (Homo sapiens, UniProt Q05940). As to conditions: radioligand, American Radiolabeled Chemicals; tissue not stated.

One may read the Kd as the equilibrium constant for the complex coming apart. 3H-dihydrotetrabenazine: the Kd is 2.6 nM.
